Test: Vasorelaxant activity in pig pulmonary artery by organ bath experiment

Point of comparison: `O=[N+]([O-])OCC(O)CO` (centres undefined), EC50 56.3 µM. Against it:
- CC(=O)OCC(COC(C)=O)O[N+](=O)[O-] — 46-fold lower, 1.23 µM
- O=[N+]([O-])OCC(CO)(CO)CO[N+](=O)[O-] — 27-fold lower, 2.1 µM
- O=[N+]([O-])OCC(CO)(CO)CO — within 1.5-fold, 72 µM
